Here are results for one substance from US4812442A, “Tripeptide renin inhibitors” (priority 1987, dated 1989).

By UniProt entry, the sequences of proteins in these tests, tags left out. Residues count along the entry.
UniProt P00797, 67-406, species assumed: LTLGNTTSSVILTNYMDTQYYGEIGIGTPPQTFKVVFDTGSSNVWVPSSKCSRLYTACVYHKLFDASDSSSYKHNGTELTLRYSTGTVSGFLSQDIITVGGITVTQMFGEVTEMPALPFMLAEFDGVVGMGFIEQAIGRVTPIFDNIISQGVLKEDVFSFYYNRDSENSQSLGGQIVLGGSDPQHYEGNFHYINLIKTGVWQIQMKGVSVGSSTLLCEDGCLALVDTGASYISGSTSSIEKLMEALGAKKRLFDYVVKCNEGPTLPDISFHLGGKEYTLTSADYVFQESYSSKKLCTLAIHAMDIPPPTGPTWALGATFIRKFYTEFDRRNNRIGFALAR

Broadly, the pIC50 is the negative decadic logarithm of the IC50, by convention in mol/L.

pIC50: −log10 of the molar value.

For the assay, the target named is renin (Homo sapiens, UniProt P00797). The assay is described as follows: Renin inhibition IC50 (methods of J. Med. Chem., 1985, 28, 1789-1790). In kind it is biochemical. The source says: The following examples are intended to be representative and not limiting. IC50 results were obtained according to the methods described in J. Med. Chem., 1985, 28, 1789-1790.

Turning to “Boc-Phe-His-ACHPA-1-piperidine [Example 8]”, the pIC50 was 7.96.
